The OPERA property sets (Mansouri et al. 2018)

CC(C)OP(=S)(OC(C)C)SCCNS(=O)(=O)c1ccccc1
logP: 4.2
